Several values for one entry are separate records, joined by “and”; a condition that tells them apart may be missing. Identical values can stand only once.
Test system: Mus musculus
Experiment: Narcotic agonist activity in sc dosed albino mouse assessed as protection against acetylcholine-induced writhing administered 20 mins prior to acetylcholine challenge measured for 2 mins
Type: functional

Question: `CC(C)(C)C(C)(O)CC[C@]1(C)[C@H]2Cc3ccc(O)cc3[C@@]1(C)CCN2CC1CC1.CS(=O)(=O)O` (stereo partly specified) was tested. Which ED50 did it give?
Answer: 8.9 mg/kg and > 25 mg/kg
